Measured values from patent US20200196599A1 (priority 2018, published 2020).

Sequences of proteins named here, by UniProt entry; tags and fusion partners are left off. Residues count along the entry.
UniProt G4MVD0, 1-632: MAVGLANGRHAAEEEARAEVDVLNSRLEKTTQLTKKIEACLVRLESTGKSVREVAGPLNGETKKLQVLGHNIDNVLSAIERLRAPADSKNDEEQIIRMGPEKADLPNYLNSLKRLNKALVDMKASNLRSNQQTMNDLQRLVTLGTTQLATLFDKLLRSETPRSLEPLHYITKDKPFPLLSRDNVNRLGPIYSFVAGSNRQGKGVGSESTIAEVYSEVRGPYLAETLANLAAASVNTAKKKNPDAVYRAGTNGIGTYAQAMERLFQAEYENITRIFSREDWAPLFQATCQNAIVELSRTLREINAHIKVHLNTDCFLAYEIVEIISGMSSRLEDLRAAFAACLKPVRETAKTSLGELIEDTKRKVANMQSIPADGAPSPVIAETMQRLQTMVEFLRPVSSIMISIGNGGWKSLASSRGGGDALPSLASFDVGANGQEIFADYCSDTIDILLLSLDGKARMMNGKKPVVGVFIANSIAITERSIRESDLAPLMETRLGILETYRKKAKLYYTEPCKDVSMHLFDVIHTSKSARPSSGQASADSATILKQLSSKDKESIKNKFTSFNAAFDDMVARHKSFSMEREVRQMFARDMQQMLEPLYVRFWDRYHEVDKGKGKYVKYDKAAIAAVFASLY

How the values were obtained:
[1] = target: GFP-MoEXO70 (Pyricularia oryzae, UniProt G4MVD0); experiment: biochemical; type: binding, M. oryzae
[2] = system: M. oryzae; type: cell-based, Magnaporthe oryzae; conditions: CM medium, 12 days
[3] = system: B. cinerea; type: cell-based, Botrytis cinerea

Compound | Kd ([1]; read-out: calculated Kd with GFP-MoEXO70 (MST)) [µM] | concentration causing significant reduction in growth of M. oryzae [2] [µM] | concentration that significantly inhibited the growth rate of B. cinerea [3] [µM] | Kd [1] [µM]
O=C(N/N=C/c1cc(I)c(O)c(I)c1)c1cccc(F)c1 [analog 14] | 37 ± 18 |  |  | 
COc1cc(/C=N/NC(=O)c2cccc(F)c2)cc(I)c1O [ES2, endosidin2, reference compound] |  | ≥ 20 | ≥ 40 | 108 ± 49

Like-named read-outs stand apart in the source and are kept apart here.
